Active and inactive are the calls of the source. The calls are words filed in the database; no cut-off is given here.
Molecular target: Cyclin-dependent kinase 6 (Homo sapiens) (UniProt Q00534)
Assay: Thermal stabilization of CDK6 in human MDA-MB-231 cells 2 uM at 38 to 58 degreeC by CETSA analysis
Assay type: cell-based

Amino acid sequences for entries named in this document (tags omitted).
UniProt Q00534, whole entry: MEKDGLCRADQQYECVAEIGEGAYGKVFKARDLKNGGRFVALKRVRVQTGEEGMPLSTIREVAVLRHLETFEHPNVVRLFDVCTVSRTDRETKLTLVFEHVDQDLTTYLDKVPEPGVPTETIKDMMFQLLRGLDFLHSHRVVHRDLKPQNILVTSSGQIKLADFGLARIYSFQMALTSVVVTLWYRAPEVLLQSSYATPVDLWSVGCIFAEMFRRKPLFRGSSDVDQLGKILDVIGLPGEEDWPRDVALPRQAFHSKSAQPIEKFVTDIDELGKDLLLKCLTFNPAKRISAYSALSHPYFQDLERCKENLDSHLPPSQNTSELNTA

Question: For COc1cc(OC)c2c(=O)[nH]c(-c3ccc(C(=O)N4CC5(CCN(c6ncc7c(C)cc(=O)n(C8CCCC8)c7n6)CC5)C4)cc3)nc2c1, which Activity is on record?
Answer: The Activity was “Active”.

Reference: ChEMBL document CHEMBL6083283, “Discovery of Dual CDK6/BRD4 Inhibitor Inducing Apoptosis and Increasing the Sensitivity of Ferroptosis in Triple-Negative Breast Cancer” (J Med Chem, 2024)
